Test results: US7374875B2, “Peptides having affinity for the gp120 viral protein and use thereof” (priority 2001, dated 2008)

Experiments:
[1] = test system: HIV-1LAI; assay: Replication of HIV-1LAI in PHA-P-activated PBMCs, reverse transcriptase activity in supernatants on day 7; details: for % inhibition of viral replication: ± standard deviation; for EC50: HIV-1LAI, read-out: ED50 (the source's name)
Description: (§1) The handling of the infectious material was carried out in an L3-type high security laboratory. In order to be as close as possible to the physiopathological conditions, the study was carried out using primary cultures of human peripheral blood mononuclear cells (PBMCs). In all the experiments, the effects of the new molecules were compared to those of AZT.
(§2) The PBMCs are separated from the other represented elements of the blood by ficoll (MSL 2000, Eurobio) gradient centrifiguation: 30 ml of blood, from a healthy donor, diluted by a third are deposited onto a 20 ml ficoll cushion. After centrifugation for 20 min at 850 g, the ring of PBMCs is removed and then washed twice with RPMI 1640, after centrifugation at 750 g for 10 min and at 400 g for 5 min. The PBMCs are then activated for 48 h with 1 μg/ml of phytohaemagglutinin-P (PHA-P; Difco Laboratories). The PBMCs are cultured at +37° C., in an atmosphere saturated with humidity, under 5% CO2. At the end of the 48 hours of mitogenic activation, they are cultured in medium B. Throughout the culturing, the culture supernatants are sampled, and the culture media are renewed every three or four days. At each renewal of the culture media, the cell viability is evaluated by microscopic observation.
(§3) The compounds of the present invention CD4M30, CD4M33 and CD4M35 were solubilized in sterile water for injectable preparation (Aguettant), aliquoted, and then stored at −20° C.
The biological characteristics of this isolate are: rapid/high, scyncitia inducing (SI), ×4: it is therefore preferentially able to infect lymphocytes. The viral stock was constituted by amplifying this strain in vitro, using umbilical cord blood mononuclear cells (UCBMCs) pre-activated with 1 μg/ml of PHA-P and cultured in medium B. In order to remove the soluble factors such as cytokines, the culture supernatants were ultracentrifuged at 360 000 g for 5 min, and the pellets were resuspended in RPMI 1640. The viral stock thus constituted was then titred using PHA-P-activated PBMCs. The TCID50 (50% Tissue Culture Infectious Dose) was calculated using the Kärber formula.
The viral replication was measured, on day 7 of the culture, by assaying the reverse transcriptase activity in the culture supernatants using the RetroSys (registered trade mark) assay kit according to the recommendations of the company Innovagen.
The 50% effective doses (ED50) are calculated using the “Dose-effects analysis with microcomputers” software developed by J. Chou & T. C. Chou.

[2] = test system: HIV-1LEN; assay: Replication of clinical isolate HIV-1LEN in PHA-P-activated PBMCs, reverse transcriptase activity in supernatants; details: 50 TCID50, PHA-P-activated human PBMCs
Description: as §1, §2, §3
The biological characteristics of this isolate are: rapid/high, scyncitia inducing (SI), ×4: it is therefore preferentially able to infect lymphocytes. […] The TCID50 (50% Tissue Culture Infectious Dose) was calculated using the Kärber formula.
The viral replication was measured, on day 7 of the culture, by assaying the reverse transcriptase activity in the culture supernatants using the RetroSys (registered trade mark) assay kit according to the recommendations of the company Innovagen. […]

Cc1cn([C@H]2C[C@H](N=[N+]=[N-])[C@@H](CO)O2)c(=O)[nH]c1=O [AZT]
% inhibition of viral replication ([1]; AZT 1 nM): 39 + 10% | % inhibition of viral replication ([1]; AZT 10 nM): 59 + 28% | % inhibition of viral replication ([1]; AZT 100 nM as printed (second such line)): 100 ± 0% | % inhibition of viral replication ([1]; AZT 100 nM): 87 ± 18% | % inhibition of viral replication ([1]; AZT 10,000 nM): 100 ± 0% | EC50 ([1]; 10 TCID50, PHA-P-activated human PBMCs): 5 nM | EC50 ([1]; various viral doses (10-100 TCID50)): 3 to 14 nM and 3 nM | ED70 [2]: 4.8 nM | ED90 [2]: 16.5 nM | EC50 ([2]; read-out: ED50 (the source's name)): 2.2 nM

Where “and” joins values, the source holds several entries; their conditions need not be identical. Equal values may be shown once. Read-outs that look alike come from different tables or passages of the source.
